One test deals with A431 cells. In words: Cell viability (MTS) assay, cell killing. The format is cell-based, human. The conditions noted are these: for cell killing activity (in words): EGFR/HER2 expressing cells (A431, CaSKi). As to the method:
(§1) After treatment the cells were incubated for 72 hr at 37° C. before the cell viability was determined by a MTS-assay, performed according to the manufacturer's instruction (CellTiter 96® AQueous One Solution Cell Proliferation Assay, Promega). Briefly, the MTS solution was diluted 20× in DMEM without phenol red (PAN-Biotech GmbH) supplemented with 10% FBS. The cells were washed once with 200 μL/PBS well, after which 100 μL diluted MTS solution was added/well. The plate was incubated for approximately 20-30 minutes at 37° C. Subsequently, the OD at 492 nm was measured on a Thermo Scientific Multiskan FC plate reader (Thermo Scientific). For quantification the background signal of ‘medium only’ wells was subtracted from all other wells, before the cell viability percentage of treated/untreated cells was calculated, by dividing the background corrected signal of treated wells over the background corrected signal of the untreated wells (×100).
(§2) Cells were seeded in a 96 well plate at 5.000-10.000 c/w in 100 μL/well and incubated overnight at 37° C. […] The media was removed from the cell culture plate and replaced by 180 μL culture media, followed by the addition of 20 μL treatment-mix/well. […] In the case that endosomal acidification inhibitors (chloroquine (Sigma Aldrich) or bafilomycin A1 (Enzo Life Sciences)) were used, the cell culture media in step 1 of treatment was replaced by 180 μL media containing 1 μM chloroquine or 0.2 μM bafilomycin A1. The plate was incubated for 1 hour at 37° C., before the 10× treatment-mix samples were added. The remaining incubation and treatment steps were performed according to standard procedures known in the field.
(§3) After treatment the cells were incubated for 72 hr at 37° C. before the cell viability was determined by a MTS-assay, performed according to the manufacturer's instruction (CellTiter 96® AQueous One Solution Cell Proliferation Assay, Promega). Briefly, the MTS solution was diluted 20× in DMEM without phenol red (PAN-Biotech GmbH) supplemented with 10% FBS (PAN-Biotech GmbH). The cells were washed once with 200 μL PBS per well, after which 100 μL diluted MTS solution was added per well. The plate was incubated for approximately 20-30 minutes at 37° C. Subsequently, the optical density at 492 nm was measured on a Thermo Scientific Multiskan FC plate reader (Thermo Scientific). For quantification the background signal of ‘medium only’ wells was subtracted from all other wells, before the ratio of untreated/treated cells was calculated, by dividing the background corrected signal of untreated wells over the background corrected signal of the treated wells.

For another test, the system named is A431 tumor. Kind of test: A431 xenograph mouse tumor model, tumor volume. The format is in vivo. The settings on record: Balb/c nude mice, A431 xenograft, sub-optimal ADC dose. As to the method: The conjugate was tested in a A431 (EGFR^++) xenograph mouse tumor model for EGFR tumor targeted cell killing as illustrated in FIG. 1J. Dosings started at day 12 when tumors reached ˜150 mm^3 in size and tumor volume was determined after every dosing.
Female Balb/c nude mice were injected subcutaneously with a suspension of human A431 tumor cells. Under the skin of the mice, a human epidermal carcinoma developed in the xenograft animal tumor model. After injection of the tumor cells, the xenograft tumor was allowed to develop to a size of approximately 170-180 mm^3. The A431 tumor cells have the following characteristics: high EGFR expressors, medium CD71 expressors, low HER2 expressors.
In Table 8A, the results of the treatment of control mice and tumor-bearing mice are presented. Tumor-bearing mice were treated with the indicated antibodies directed to either human Her2/neu, human EGFR, or human CD71, which are cell-surface receptors on the xenograft tumor. Cetuximab was covalently conjugated with saponin SO1861. […] The dose of the ADCs was sub-optimal in the tumor model. That is to say, from previous experiments, it was established at which sub-optimal dose of the ADCs no tumor-regression or arrest of tumor growth would be observable.
The 2 target 2-components system (2T2C) is the combination treatment of mAb1-SO1861 and mAb2-protein toxin, (FIG. 1B-D).

The next test has as its system MDA-MB-468 cells. In words: Cell viability (MTS) assay, cell killing. It counts as cell-based, human. The conditions noted are these: titrated alone. As to the method: as §1, §2, §3
Another test has as its system SK-BR-3 cells. Kind of test: Cell viability (MTS) assay, cell killing. It counts as cell-based, human. On the procedure:
as §1, §2, §3

The mark [1] stands for this setting: alone, equivalent concentrations.

pIC50: −log10 of the molar value. Entries after “also recorded” stand apart in the source; their conditions may differ.

On to “Cetuximab: monoclonal antibody recognizing and binding human EGFR”, for which the “cell killing activity (in words)” value in the test on A431 cells (+ 50 μM trastuzumab-saporin) and with A431 cells (setting [1]) was “could not induce any cell killing activity” in each case. Also, the “outcome (death/euthanasia or survival)” value in the test with A431 tumor is recorded as “(death/euthanasia)”. “T-DM1: Trastuzumab-emtansine carrying ~3.5 DM1 toxin molecules per antibody” had a pIC50 in the test on MDA-MB-468 cells of 7.22. For the same substance, in the test with A431 cells (A431 cells (high EGFR, low HER2)), the “cell killing (in words)” value is “nanomolar concentrations; also recorded: not effective at such low toxin concentrations”. With “Trastuzumab: monoclonal antibody recognizing and binding human HER2”, the “cell killing activity (in words)” value is given as “could not induce any cell killing activity” with SK-BR-3 cells (+ 1.5 μM EGFdianthin), “could not induce any cell killing activity” with SK-BR-3 cells (+ 5 μM cetuximab-saporin) and “not observed; also recorded: could not induce any cell killing activity” in the test with SK-BR-3 cells (alone). As for “cetuximab-(Cys-L-SO1861)^3, 7: SO1861-EMCH conjugated via cysteine residues to cetuximab”, the “cell killing activity (in words)” value in the test on A431 cells (setting [1]) is listed as “could not induce any cell killing activity”. With “cetuximab-SO1861: SO1861-EMCH conjugated to cysteines of cetuximab, cleavable hydrazone linker”, the “tumor size (volume)” value in the test with A431 tumor (about 170-180 mm^3 at start of treatment) came out at 2000 mm^3. For the substance “trastuzumab-(Cys-L-SO1861)^4: SO1861-EMCH conjugated via cysteine residues to trastuzumab”, in the test on SK-BR-3 cells (alone), the “cell killing activity (in words)” value is listed as “could not induce any cell killing activity”.

Take “trastuzumab-(L-SO1861)^3, 8: trastuzumab with labile SO1861 only”: in the test on SK-BR-3 cells (alone), the “cell killing activity (in words)” value is listed as “not observed”.

What is called pIC50 is the negative decadic logarithm of the IC50, by convention in mol/L. A higher pIC50 goes with a low IC50.

The values above are taken from patent US20230277680A1, “CONJUGATE OF A SINGLE DOMAIN ANTIBODY, A SAPONIN AND AN EFFECTOR MOLECULE, PHARMACEUTICAL COMPOSITION COMPRISING THE SAME, THERAPEUTIC USE OF SAID PHARMACEUTICAL COMPOSITION” (SAPREME TECHNOLOGIES B.V., priority 2020, published 2023).
